Reference: publication PMC5897774, “Mitotic spindle association of TACC3 requires Aurora‐A‐dependent stabilization of a cryptic α‐helix” (The EMBO Journal, 2018)

How the values were obtained:
CHC 1–574 = target: T1, CHC 1–574 (Homo sapiens, UniProt Q00610); assay: FP binding assay, CHC 1–574; conditions: 50 nM FAM peptide, pH 7.5, 25°C; for affinity for CHC 1–574 (in words): effect of S558 phosphorylation or phosphomimetic; for reduction of affinity for CHC 1–574 compared to WT: in words
T1 construct: GST (cleaved yes); made in house
T1 sequence (Q00610 1-574): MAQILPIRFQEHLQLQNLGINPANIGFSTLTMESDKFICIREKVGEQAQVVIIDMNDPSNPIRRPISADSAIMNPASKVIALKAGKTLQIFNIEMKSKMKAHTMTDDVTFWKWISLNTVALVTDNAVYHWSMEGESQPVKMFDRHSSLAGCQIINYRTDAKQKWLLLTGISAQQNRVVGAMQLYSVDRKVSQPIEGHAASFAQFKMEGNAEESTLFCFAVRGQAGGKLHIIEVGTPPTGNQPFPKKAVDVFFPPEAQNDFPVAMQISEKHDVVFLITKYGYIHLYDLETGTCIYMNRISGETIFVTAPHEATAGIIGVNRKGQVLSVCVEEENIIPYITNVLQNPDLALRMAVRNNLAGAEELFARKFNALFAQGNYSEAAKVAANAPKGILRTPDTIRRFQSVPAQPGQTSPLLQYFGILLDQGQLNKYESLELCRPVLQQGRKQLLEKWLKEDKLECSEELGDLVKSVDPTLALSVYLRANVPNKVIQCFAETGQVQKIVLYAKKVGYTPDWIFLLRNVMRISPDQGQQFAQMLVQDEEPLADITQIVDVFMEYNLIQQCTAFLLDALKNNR
Method: For CHC‐TACC3 FP assays, CHC proteins were serially diluted in FP buffer (20 mM HEPES–NaOH pH 7.5, 200 mM NaCl, 5 mM DTT). FAM‐labelled TACC3 peptide was added to a final concentration of 50 nM and incubated for 30 min at room temperature to allow binding to reach equilibrium. Fluorescence polarization measurements were made using a Victor X5 plate reader (Perkin Elmer) at 25°C with excitation at 490 nm and emission at 535 nm. Data analysis was performed as described above.

CHC 1–574 F492Y = target: T2, CHC 1–574 F492Y (Homo sapiens, UniProt Q00610, F492Y); assay: FP binding assay, CHC 1–574 F492Y; conditions: CHC 1–574 F492Y relative to WT CHC
T2 construct: GST (cleaved yes); made in house
T2 sequence (Q00610 1-574 F492Y): T1 sequence (Q00610 1-574) with F492Y
Text: Next, we examined whether the CHC‐TACC3 interaction could be disrupted by mutations on the surface of CHC, based on analysis of the crystal structure (Fig 6A). For example, R481 interacts with both TACC3 Y560 and TACC3 D564 and was mutated to glutamic acid to disrupt both interactions. We explored the opportunities for disruption of specific contacts with the side chain of TACC3 F563: L480 nestles against the Cβ atom of TACC3 F563 and was mutated to aspartic acid alone or in combination with a L476D mutation, which disrupts the hydrophobic surface contacting P565; the double mutation L503A/Y504A removes the pocket into which the phenyl group of F563 binds; the subtle F492Y mutation introduces an –OH group that is predicted to clash with the Cβ atom of TACC3 F563. The mutant CHC proteins were expressed and purified as the WT protein, and binding affinities to the FAM‐labelled pTACC3^CID were measured using the FP assay (Fig 6B). […] The four other mutant CHC proteins were measured to have K ds for pTACC3^CID of over 300 μM. […]
For CHC‐TACC3 FP assays, CHC proteins were serially diluted in FP buffer (20 mM HEPES–NaOH pH 7.5, 200 mM NaCl, 5 mM DTT). […] Fluorescence polarization measurements were made using a Victor X5 plate reader (Perkin Elmer) at 25°C with excitation at 490 nm and emission at 535 nm. […]

| SMILES | reduction of affinity for CHC 1–574 compared to WT (CHC 1–574; mutant vs WT phospho-TACC3^CID) | also measured |
| --- | --- | --- |
| CC(C)C[C@H](NC(=O)[C@H](C)NC(=O)[C@H](CO)NC(=O)[C@H](CCC(=O)O)NC(=O)[C@H](CCCCN)NC(=O)[C@H](Cc1ccccc1)NC(=O)c1ccc2c(c1)C(=O)OC21c2ccc(O)cc2Oc2cc(O)ccc21)C(=O)N[C@@H](CCCNC(=N)N)C(=O)N[C@@H](CCCCN)C(=O)N[C@@H](CCC(N)=O)C(=O)N[C@@H](CCC(=O)O)C(=O)N[C@@H](CC(C)C)C(=O)N[C@@H](Cc1ccc(O)cc1)C(=O)N[C@@H](CC(C)C)C(=O)N[C@@H](CCCCN)C(=O)N[C@@H](Cc1ccccc1)C(=O)N[C@@H](CC(=O)O)C(=O)N1CCC[C@H]1C(=O)N[C@@H](CC(C)C)C(=O)N[C@@H](CC(C)C)C(=O)N[C@@H](CCCNC(=N)N)C(=O)N[C@@H](CC(=O)O)C(=O)N[C@@H](CO)C(=O)O [S558E] | – | affinity for CHC 1–574 (in words) (CHC 1–574): did not increase affinity |
| CC(C)C[C@H](NC(=O)[C@H](C)NC(=O)[C@H](CO)NC(=O)[C@H](CCC(=O)O)NC(=O)[C@H](CCCCN)NC(=O)[C@H](Cc1ccccc1)NC(=O)c1ccc2c(c1)C(=O)OC21c2ccc(O)cc2Oc2cc(O)ccc21)C(=O)N[C@@H](CCCNC(=N)N)C(=O)N[C@@H](CCCCN)C(=O)N[C@@H](CCC(N)=O)C(=O)N[C@@H](COP(=O)(O)O)C(=O)N[C@@H](C)C(=O)N[C@@H](Cc1ccc(O)cc1)C(=O)N[C@@H](CC(C)C)C(=O)N[C@@H](CCCCN)C(=O)N[C@@H](Cc1ccccc1)C(=O)N[C@@H](CC(=O)O)C(=O)N1CCC[C@H]1C(=O)N[C@@H](CC(C)C)C(=O)N[C@@H](CC(C)C)C(=O)N[C@@H](CCCNC(=N)N)C(=O)N[C@@H](CC(=O)O)C(=O)N[C@@H](CO)C(=O)O [L559A] | at least fourfold | – |
| CC(C)C[C@H](NC(=O)[C@H](C)NC(=O)[C@H](CO)NC(=O)[C@H](CCC(=O)O)NC(=O)[C@H](CCCCN)NC(=O)[C@H](Cc1ccccc1)NC(=O)c1ccc2c(c1)C(=O)OC21c2ccc(O)cc2Oc2cc(O)ccc21)C(=O)N[C@@H](CCCNC(=N)N)C(=O)N[C@@H](CCCCN)C(=O)N[C@@H](CCC(N)=O)C(=O)N[C@@H](COP(=O)(O)O)C(=O)N[C@@H](CC(C)C)C(=O)N[C@@H](Cc1ccc(O)cc1)C(=O)N[C@@H](CC(C)C)C(=O)N[C@@H](CCCCN)C(=O)N[C@@H](C)C(=O)N[C@@H](CC(=O)O)C(=O)N1CCC[C@H]1C(=O)N[C@@H](CC(C)C)C(=O)N[C@@H](CC(C)C)C(=O)N[C@@H](CCCNC(=N)N)C(=O)N[C@@H](CC(=O)O)C(=O)N[C@@H](CO)C(=O)O [F563A] | at least fourfold | – |
| CC(C)C[C@H](NC(=O)[C@H](C)NC(=O)[C@H](CO)NC(=O)[C@H](CCC(=O)O)NC(=O)[C@H](CCCCN)NC(=O)[C@H](Cc1ccccc1)NC(=O)c1ccc2c(c1)C(=O)OC21c2ccc(O)cc2Oc2cc(O)ccc21)C(=O)N[C@@H](C)C(=O)N[C@@H](CCCCN)C(=O)N[C@@H](CCC(N)=O)C(=O)N[C@@H](COP(=O)(O)O)C(=O)N[C@@H](CC(C)C)C(=O)N[C@@H](Cc1ccc(O)cc1)C(=O)N[C@@H](CC(C)C)C(=O)N[C@@H](CCCCN)C(=O)N[C@@H](Cc1ccccc1)C(=O)N[C@@H](CC(=O)O)C(=O)N1CCC[C@H]1C(=O)N[C@@H](CC(C)C)C(=O)N[C@@H](CC(C)C)C(=O)N[C@@H](CCCNC(=N)N)C(=O)N[C@@H](CC(=O)O)C(=O)N[C@@H](CO)C(=O)O [R555A] | – | factor of reduction of affinity for CHC 1–574 (CHC 1–574; mutant vs WT phospho-TACC3^CID): 4–5 factor |
| CC(C)C[C@H](NC(=O)[C@H](C)NC(=O)[C@H](CO)NC(=O)[C@H](CCC(=O)O)NC(=O)[C@H](CCCCN)NC(=O)[C@H](Cc1ccccc1)NC(=O)c1ccc2c(c1)C(=O)OC21c2ccc(O)cc2Oc2cc(O)ccc21)C(=O)N[C@@H](CCCNC(=N)N)C(=O)N[C@@H](CCCCN)C(=O)N[C@@H](CCC(N)=O)C(=O)N[C@@H](COP(=O)(O)O)C(=O)N[C@@H](CC(C)C)C(=O)N[C@@H](C)C(=O)N[C@@H](CC(C)C)C(=O)N[C@@H](CCCCN)C(=O)N[C@@H](Cc1ccccc1)C(=O)N[C@@H](CC(=O)O)C(=O)N1CCC[C@H]1C(=O)N[C@@H](CC(C)C)C(=O)N[C@@H](CC(C)C)C(=O)N[C@@H](CCCNC(=N)N)C(=O)N[C@@H](CC(=O)O)C(=O)N[C@@H](CO)C(=O)O [Y560A] | at least fourfold | – |
| CC(C)C[C@H](NC(=O)[C@H](C)NC(=O)[C@H](CO)NC(=O)[C@H](CCC(=O)O)NC(=O)[C@H](CCCCN)NC(=O)[C@H](Cc1ccccc1)NC(=O)c1ccc2c(c1)C(=O)OC21c2ccc(O)cc2Oc2cc(O)ccc21)C(=O)N[C@@H](CCCNC(=N)N)C(=O)N[C@@H](CCCCN)C(=O)N[C@@H](CCC(N)=O)C(=O)N[C@@H](COP(=O)(O)O)C(=O)N[C@@H](CC(C)C)C(=O)N[C@@H](Cc1ccc(O)cc1)C(=O)N[C@@H](CC(C)C)C(=O)N[C@@H](CCCCN)C(=O)N[C@@H](Cc1ccccc1)C(=O)N[C@@H](CC(=O)O)C(=O)N1CCC[C@H]1C(=O)N[C@@H](CC(C)C)C(=O)N[C@@H](CC(C)C)C(=O)N[C@@H](CCCNC(=N)N)C(=O)N[C@@H](CC(=O)O)C(=O)N[C@@H](CO)C(=O)O [FAM‐phospho‐TACC3^CID] | – | increase in K d (CHC 1–574 F492Y): > 6 fold; affinity for CHC 1–574 (in words) (CHC 1–574): enhanced affinity fourfold |
| CC(C)C[C@H](NC(=O)[C@H](C)NC(=O)[C@H](CO)NC(=O)[C@H](CCC(=O)O)NC(=O)[C@H](CCCCN)NC(=O)[C@H](Cc1ccccc1)NC(=O)c1ccc2c(c1)C(=O)OC21c2ccc(O)cc2Oc2cc(O)ccc21)C(=O)N[C@@H](CCCNC(=N)N)C(=O)N[C@@H](CCCCN)C(=O)N[C@@H](CCC(N)=O)C(=O)N[C@@H](COP(=O)(O)O)C(=O)N[C@@H](CC(C)C)C(=O)N[C@@H](Cc1ccc(O)cc1)C(=O)N[C@@H](CC(C)C)C(=O)N[C@@H](C)C(=O)N[C@@H](Cc1ccccc1)C(=O)N[C@@H](CC(=O)O)C(=O)N1CCC[C@H]1C(=O)N[C@@H](CC(C)C)C(=O)N[C@@H](CC(C)C)C(=O)N[C@@H](CCCNC(=N)N)C(=O)N[C@@H](CC(=O)O)C(=O)N[C@@H](CO)C(=O)O [K562A] | negligible | – |

Changes are numbered by the printed parent chain.
